Experimental data: patent US20260384438A1, “PYRROLOPYRIMIDINE CARBOXAMIDES” (published 2026)

Protein sequences, listed by entry. Tags and fused reporters are not part of them. Residues count along the entry.
UniProt P09769, whole entry: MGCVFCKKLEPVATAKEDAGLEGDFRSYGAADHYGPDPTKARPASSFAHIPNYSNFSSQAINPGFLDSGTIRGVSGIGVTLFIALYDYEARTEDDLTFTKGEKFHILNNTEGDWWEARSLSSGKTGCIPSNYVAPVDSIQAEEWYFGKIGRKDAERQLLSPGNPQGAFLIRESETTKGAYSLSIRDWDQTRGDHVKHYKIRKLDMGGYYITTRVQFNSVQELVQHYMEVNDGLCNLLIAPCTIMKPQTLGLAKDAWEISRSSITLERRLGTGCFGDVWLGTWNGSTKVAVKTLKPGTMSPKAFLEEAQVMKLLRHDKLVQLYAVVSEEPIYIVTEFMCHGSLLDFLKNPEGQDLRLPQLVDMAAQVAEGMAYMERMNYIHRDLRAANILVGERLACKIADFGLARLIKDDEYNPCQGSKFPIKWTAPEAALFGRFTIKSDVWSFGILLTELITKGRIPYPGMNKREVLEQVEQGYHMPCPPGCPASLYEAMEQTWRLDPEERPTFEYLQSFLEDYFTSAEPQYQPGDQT
UniProt P07333, 539-972 limits assumed: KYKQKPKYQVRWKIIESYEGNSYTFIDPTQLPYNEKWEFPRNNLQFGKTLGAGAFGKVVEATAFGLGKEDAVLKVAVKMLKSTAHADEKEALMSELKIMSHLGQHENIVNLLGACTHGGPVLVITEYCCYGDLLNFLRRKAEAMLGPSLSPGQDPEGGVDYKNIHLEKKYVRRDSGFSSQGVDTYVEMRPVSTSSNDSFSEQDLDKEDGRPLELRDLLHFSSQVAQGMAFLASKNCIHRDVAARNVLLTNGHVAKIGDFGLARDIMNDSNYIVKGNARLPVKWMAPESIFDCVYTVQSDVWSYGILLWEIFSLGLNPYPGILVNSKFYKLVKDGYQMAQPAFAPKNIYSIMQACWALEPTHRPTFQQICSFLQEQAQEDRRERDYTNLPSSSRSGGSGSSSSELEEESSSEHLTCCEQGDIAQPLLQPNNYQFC
UniProt P54756, 25-1037 limits assumed: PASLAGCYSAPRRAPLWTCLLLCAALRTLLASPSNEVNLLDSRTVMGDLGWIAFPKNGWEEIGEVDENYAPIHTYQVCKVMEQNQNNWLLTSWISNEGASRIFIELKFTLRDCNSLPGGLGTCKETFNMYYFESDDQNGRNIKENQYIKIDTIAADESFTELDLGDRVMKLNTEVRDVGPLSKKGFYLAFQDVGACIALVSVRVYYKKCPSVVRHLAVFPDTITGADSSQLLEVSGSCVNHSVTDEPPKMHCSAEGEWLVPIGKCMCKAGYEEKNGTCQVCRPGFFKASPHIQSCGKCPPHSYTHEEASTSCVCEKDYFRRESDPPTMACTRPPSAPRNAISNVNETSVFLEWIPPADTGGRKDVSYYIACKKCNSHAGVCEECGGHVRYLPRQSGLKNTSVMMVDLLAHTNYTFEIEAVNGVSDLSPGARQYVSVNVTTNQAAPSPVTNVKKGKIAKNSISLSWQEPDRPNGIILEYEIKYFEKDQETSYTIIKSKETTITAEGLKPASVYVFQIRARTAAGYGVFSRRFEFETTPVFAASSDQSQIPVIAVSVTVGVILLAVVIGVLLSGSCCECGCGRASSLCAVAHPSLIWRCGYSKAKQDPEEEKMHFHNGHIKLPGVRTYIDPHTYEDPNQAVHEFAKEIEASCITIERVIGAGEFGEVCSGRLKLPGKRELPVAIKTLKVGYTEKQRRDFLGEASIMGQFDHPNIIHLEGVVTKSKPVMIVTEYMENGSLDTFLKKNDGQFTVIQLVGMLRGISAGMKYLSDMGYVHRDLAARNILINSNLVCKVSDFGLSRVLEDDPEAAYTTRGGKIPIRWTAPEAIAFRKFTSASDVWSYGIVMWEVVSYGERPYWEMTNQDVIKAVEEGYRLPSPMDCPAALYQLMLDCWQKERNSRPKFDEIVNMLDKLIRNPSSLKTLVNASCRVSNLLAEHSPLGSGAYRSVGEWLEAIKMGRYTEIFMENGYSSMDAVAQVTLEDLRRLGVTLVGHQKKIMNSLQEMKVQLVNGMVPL
UniProt Q08881, whole entry: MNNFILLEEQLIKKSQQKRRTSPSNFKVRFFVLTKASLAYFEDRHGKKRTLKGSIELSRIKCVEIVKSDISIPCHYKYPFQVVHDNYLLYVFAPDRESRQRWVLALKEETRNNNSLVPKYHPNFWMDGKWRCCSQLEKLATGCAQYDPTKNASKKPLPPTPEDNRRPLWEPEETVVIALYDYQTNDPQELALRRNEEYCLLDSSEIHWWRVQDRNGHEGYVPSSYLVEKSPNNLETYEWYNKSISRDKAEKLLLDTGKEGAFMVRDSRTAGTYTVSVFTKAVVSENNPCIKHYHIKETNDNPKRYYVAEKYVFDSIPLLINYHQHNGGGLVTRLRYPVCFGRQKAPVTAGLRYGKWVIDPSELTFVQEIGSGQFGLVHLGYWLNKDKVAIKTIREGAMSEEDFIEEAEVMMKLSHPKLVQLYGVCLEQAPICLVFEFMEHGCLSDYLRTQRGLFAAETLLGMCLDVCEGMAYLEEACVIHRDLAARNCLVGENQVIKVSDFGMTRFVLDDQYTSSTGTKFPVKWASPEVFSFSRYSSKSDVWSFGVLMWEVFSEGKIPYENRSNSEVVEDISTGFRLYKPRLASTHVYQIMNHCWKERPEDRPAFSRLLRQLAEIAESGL
UniProt Q9BZL6, whole entry: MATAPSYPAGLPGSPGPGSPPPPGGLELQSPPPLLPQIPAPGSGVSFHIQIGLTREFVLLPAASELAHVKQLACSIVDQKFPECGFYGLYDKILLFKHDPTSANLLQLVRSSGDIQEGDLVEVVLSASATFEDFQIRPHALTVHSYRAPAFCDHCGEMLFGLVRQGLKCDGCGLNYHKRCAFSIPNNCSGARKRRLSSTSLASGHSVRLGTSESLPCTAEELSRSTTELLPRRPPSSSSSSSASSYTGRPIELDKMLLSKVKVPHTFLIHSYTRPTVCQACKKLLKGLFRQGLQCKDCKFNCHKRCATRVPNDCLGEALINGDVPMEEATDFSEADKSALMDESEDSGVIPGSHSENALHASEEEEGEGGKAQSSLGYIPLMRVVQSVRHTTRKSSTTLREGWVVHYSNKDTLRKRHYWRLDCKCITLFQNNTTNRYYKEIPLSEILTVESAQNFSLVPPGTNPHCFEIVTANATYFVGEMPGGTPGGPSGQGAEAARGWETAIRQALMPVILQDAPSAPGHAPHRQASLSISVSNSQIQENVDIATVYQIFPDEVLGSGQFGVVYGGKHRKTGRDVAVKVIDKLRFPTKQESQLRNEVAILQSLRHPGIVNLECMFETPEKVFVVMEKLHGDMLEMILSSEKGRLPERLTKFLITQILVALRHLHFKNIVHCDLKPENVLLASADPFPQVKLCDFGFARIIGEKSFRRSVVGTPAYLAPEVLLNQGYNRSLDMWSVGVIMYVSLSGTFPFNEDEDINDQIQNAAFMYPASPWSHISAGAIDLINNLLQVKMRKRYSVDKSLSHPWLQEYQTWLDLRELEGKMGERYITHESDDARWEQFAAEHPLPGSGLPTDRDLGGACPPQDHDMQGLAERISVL
UniProt Q9P1W9, whole entry: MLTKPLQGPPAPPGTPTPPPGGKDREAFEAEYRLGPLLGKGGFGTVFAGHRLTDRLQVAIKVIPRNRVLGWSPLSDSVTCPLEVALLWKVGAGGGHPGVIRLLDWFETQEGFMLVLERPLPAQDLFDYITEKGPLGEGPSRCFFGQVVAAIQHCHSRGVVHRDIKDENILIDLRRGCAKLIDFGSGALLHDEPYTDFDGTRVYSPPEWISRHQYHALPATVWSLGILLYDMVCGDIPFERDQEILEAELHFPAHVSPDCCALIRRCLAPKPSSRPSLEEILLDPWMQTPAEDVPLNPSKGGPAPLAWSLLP
UniProt P06239, whole entry: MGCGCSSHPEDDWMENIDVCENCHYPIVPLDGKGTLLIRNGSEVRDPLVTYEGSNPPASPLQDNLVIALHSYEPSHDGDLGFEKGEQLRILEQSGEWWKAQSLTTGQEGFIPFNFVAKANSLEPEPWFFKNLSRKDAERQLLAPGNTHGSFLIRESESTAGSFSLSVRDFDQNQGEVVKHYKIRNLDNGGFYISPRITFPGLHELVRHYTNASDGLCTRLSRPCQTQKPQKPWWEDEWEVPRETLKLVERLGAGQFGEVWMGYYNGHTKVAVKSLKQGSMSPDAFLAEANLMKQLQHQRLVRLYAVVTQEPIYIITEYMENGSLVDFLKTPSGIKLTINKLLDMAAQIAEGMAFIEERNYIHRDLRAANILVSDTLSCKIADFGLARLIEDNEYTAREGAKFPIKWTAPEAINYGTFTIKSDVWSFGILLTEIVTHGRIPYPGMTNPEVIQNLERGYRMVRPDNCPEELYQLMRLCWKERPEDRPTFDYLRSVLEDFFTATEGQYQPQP
UniProt P06241, whole entry: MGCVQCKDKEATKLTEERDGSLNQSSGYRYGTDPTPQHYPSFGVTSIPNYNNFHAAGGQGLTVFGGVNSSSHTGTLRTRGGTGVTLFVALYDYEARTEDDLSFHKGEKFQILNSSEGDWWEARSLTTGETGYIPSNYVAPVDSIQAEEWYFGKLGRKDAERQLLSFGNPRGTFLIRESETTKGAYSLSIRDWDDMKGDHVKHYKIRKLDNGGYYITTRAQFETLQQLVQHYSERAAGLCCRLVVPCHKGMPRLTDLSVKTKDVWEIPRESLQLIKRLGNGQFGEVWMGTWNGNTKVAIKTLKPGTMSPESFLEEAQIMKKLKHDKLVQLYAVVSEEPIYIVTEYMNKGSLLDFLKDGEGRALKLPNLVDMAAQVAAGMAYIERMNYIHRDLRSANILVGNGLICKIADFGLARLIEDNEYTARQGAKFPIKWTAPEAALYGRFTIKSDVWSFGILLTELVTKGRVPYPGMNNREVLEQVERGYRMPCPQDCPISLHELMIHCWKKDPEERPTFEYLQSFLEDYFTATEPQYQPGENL
UniProt Q13177, whole entry: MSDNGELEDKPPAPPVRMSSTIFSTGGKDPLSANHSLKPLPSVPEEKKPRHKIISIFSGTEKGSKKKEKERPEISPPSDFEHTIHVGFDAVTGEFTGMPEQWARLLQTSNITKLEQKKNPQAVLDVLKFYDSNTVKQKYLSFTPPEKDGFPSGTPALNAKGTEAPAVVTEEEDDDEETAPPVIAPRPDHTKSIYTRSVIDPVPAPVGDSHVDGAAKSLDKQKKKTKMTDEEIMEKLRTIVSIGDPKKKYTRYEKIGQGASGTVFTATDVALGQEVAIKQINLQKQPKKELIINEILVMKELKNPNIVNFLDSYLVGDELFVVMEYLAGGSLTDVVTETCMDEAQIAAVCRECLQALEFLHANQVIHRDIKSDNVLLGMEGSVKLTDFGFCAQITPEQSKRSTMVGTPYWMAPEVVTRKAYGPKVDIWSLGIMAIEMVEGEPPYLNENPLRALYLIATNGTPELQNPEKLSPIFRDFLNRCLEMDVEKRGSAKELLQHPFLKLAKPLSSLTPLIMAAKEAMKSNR
UniProt Q06418, 41-890 limits assumed: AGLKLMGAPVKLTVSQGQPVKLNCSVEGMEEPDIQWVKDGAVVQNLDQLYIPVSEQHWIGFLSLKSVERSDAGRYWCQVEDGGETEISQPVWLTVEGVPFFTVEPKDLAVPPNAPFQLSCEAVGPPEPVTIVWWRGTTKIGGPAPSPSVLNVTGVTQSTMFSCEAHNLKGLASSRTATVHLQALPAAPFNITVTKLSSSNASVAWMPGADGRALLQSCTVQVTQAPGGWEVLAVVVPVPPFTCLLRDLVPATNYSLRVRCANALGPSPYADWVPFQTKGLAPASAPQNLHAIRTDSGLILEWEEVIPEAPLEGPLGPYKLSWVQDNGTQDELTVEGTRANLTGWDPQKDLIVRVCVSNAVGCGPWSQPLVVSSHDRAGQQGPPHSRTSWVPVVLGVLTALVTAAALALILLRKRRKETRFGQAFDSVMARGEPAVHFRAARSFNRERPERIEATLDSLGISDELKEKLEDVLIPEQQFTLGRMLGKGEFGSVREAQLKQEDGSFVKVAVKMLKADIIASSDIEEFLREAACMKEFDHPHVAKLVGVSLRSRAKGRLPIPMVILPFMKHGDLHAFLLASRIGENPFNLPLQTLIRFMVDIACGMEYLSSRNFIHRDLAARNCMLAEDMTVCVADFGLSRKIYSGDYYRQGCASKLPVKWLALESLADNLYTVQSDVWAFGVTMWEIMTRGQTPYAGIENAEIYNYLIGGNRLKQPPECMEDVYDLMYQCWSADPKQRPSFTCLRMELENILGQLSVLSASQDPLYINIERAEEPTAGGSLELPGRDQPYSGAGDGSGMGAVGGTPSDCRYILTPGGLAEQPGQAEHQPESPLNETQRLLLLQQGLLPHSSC
UniProt P19784, whole entry: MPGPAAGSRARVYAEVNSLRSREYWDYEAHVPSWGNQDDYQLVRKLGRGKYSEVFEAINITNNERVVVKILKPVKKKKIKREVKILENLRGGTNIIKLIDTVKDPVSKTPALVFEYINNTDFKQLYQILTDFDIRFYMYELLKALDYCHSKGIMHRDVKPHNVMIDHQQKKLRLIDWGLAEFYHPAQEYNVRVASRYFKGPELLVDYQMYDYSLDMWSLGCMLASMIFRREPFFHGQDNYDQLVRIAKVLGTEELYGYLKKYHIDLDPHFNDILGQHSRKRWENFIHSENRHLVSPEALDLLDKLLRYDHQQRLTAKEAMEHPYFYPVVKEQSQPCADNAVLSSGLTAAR

What was measured:
Test in all cases: Kinase profiling, Z-Lyte
FGR = FGR (Homo sapiens, UniProt P09769)
CHEK2 (CHK2) = CHEK2 (CHK2) (Homo sapiens, UniProt O96017); settings: 1 μM, KmATP
CSF1R (FMS) = CSF1R (FMS) (Homo sapiens, UniProt P07333); settings: 1 μM, KmATP
MARK4 = MARK4 (Homo sapiens, UniProt Q96L34); settings: 1 μM, KmATP
LYN A Hu Phos = LYN A Hu Phos (Homo sapiens, UniProt P07948); settings: 1 μM, KmATP
EPHA5 = EPHA5 (Homo sapiens, UniProt P54756); settings: 1 μM, KmATP
SGK2 = SGK2 (Homo sapiens, UniProt Q9HBY8); settings: 1 μM, KmATP
EPHB3 = EPHB3 (Homo sapiens, UniProt P54753); settings: 1 μM, KmATP
DYRK1B = DYRK1B (Homo sapiens, UniProt Q9Y463)
ROS1 = ROS1 (Homo sapiens, UniProt P08922); settings: 1 μM, KmATP
CHEK1 (CHK1) = CHEK1 (CHK1) (Homo sapiens, UniProt O14757); settings: 1 μM, KmATP
ITK = ITK (Homo sapiens, UniProt Q08881); settings: 1 μM, KmATP
PRKCD (PKC delta) = PRKCD (PKC delta) (Homo sapiens, UniProt Q05655); settings: 1 μM, KmATP
SNF1LK2 = SNF1LK2 (Homo sapiens, UniProt Q9H0K1); settings: 1 μM, KmATP
PRKD2 (PKD2) = PRKD2 (PKD2) (Homo sapiens, UniProt Q9BZL6); settings: 1 μM, KmATP
AMPK A1/B2/G3 = AMPK A1/B2/G3 (Homo sapiens, UniProt Q13131); settings: 1 μM, KmATP
MELK = MELK (Homo sapiens, UniProt Q14680); settings: 1 μM, KmATP
PIM2 = PIM2 (Homo sapiens, UniProt Q9P1W9); settings: 1 μM, KmATP
JAK3 = JAK3 (Homo sapiens, UniProt P52333); settings: 1 μM, KmATP
LCK = LCK (Homo sapiens, UniProt P06239)
EPHAS = EPHAS (Homo sapiens, UniProt P54756); settings: 10-point CR, ATP 150.000 μM
SRMS (Srm) = SRMS (Srm) (Homo sapiens, UniProt Q9H3Y6); settings: 1 μM, KmATP
CSNK1G1 (CK1gamma1) = CSNK1G1 (CK1gamma1) (Homo sapiens, UniProt Q9HCP0); settings: 1 μM, KmATP
FYN = FYN (Homo sapiens, UniProt P06241); settings: 1 μM, KmATP
AKT1 (PKB alpha) = AKT1 (PKB alpha) (Homo sapiens, UniProt P31749); settings: 1 μM, KmATP
HIPK1 (Myak) = HIPK1 (Myak) (Homo sapiens, UniProt Q86Z02); settings: 1 μM, KmATP
FES (FPS) = FES (FPS) (Homo sapiens, UniProt P07332); settings: 1 μM, KmATP
STK22D (TSSK1) = STK22D (TSSK1) (Homo sapiens, UniProt Q9BXA7); settings: 1 μM, KmATP
EPHA2 = EPHA2 (Homo sapiens, UniProt P29317)
NEK4 = NEK4 (Homo sapiens, UniProt P51957); settings: 1 μM, KmATP
MAPKAPK5 (PRAK) = MAPKAPK5 (PRAK) (Homo sapiens, UniProt Q8IW41); settings: 1 μM, KmATP
PAK2 (PAK65) = PAK2 (PAK65) (Homo sapiens, UniProt Q13177); settings: 1 μM, KmATP
RPS6KA5 (MSK1) = RPS6KA5 (MSK1) (Homo sapiens, UniProt O75582); settings: 1 μM, KmATP
MAPK11 (p38 beta) = MAPK11 (p38 beta) (Homo sapiens, UniProt Q15759); settings: 1 μM, KmATP
NIM1K = NIM1K (Homo sapiens, UniProt Q8IY84); settings: 1 μM, KmATP
DCAMKL1 (DCLK1) = DCAMKL1 (DCLK1) (Homo sapiens, UniProt O15075); settings: 1 μM, KmATP
TYRO3 (RSE) = TYRO3 (RSE) (Homo sapiens, UniProt Q06418); settings: 1 μM, KmATP
CSNK2A2 (CK2alpha2) = CSNK2A2 (CK2alpha2) (Homo sapiens, UniProt P19784); settings: 1 μM, KmATP
SGK (SGK1) = SGK (SGK1) (Homo sapiens, UniProt O00141); settings: 1 μM, KmATP

Cc1nc(C(F)(F)F)c2c(C(N)=O)c(N)n(-c3c(C)ccc(O)c3C)c2n1 (single isomer, unassigned)
MEAN INHIBITION (FGR; 1 μM, KmATP): 73.456% | IC50 (FGR; 10-point CR, ATP 10.000 μM): 0.201 µM | MEAN INHIBITION (CHEK2 (CHK2)): 3.471% | MEAN INHIBITION (CSF1R (FMS)): 25.219% | MEAN INHIBITION (MARK4): 2.379% | MEAN INHIBITION (LYN A Hu Phos): 41.079% | MEAN INHIBITION (EPHA5): 44.210% | MEAN INHIBITION (SGK2): −1.482% | MEAN INHIBITION (EPHB3): 71.690% | MEAN INHIBITION (DYRK1B; 1 μM, KmATP): 54.239% | IC50 (DYRK1B; 10-point CR, ATP 75.000 μM): 0.614 µM | MEAN INHIBITION (ROS1): 7.695% | MEAN INHIBITION (CHEK1 (CHK1)): 3.644% | MEAN INHIBITION (ITK): 15.820% | MEAN INHIBITION (PRKCD (PKC delta)): 3.258% | MEAN INHIBITION (SNF1LK2): 11.712% | MEAN INHIBITION (PRKD2 (PKD2)): 7.103% | MEAN INHIBITION (AMPK A1/B2/G3): 6.628% | MEAN INHIBITION (MELK): 11.594% | MEAN INHIBITION (PIM2): 2.302% | MEAN INHIBITION (JAK3): 2.710% | MEAN INHIBITION (LCK; 1 μM, KmATP): 45.731% | IC50 (LCK; 10-point CR, ATP 50.000 μM): 0.867 µM | IC50 (EPHAS): 0.46 µM | MEAN INHIBITION (SRMS (Srm)): 27.698% | MEAN INHIBITION (CSNK1G1 (CK1gamma1)): −2.320% | MEAN INHIBITION (FYN): 60.587% | MEAN INHIBITION (AKT1 (PKB alpha)): 1.061% | MEAN INHIBITION (HIPK1 (Myak)): 1.992% | MEAN INHIBITION (FES (FPS)): 1.521% | MEAN INHIBITION (STK22D (TSSK1)): 8.038% | MEAN INHIBITION (EPHA2; 1 μM, KmATP): 59.273% | IC50 (EPHA2; 10-point CR, ATP 75.000 μM): 0.451 µM | MEAN INHIBITION (NEK4): 3.233% | MEAN INHIBITION (MAPKAPK5 (PRAK)): 6.462% | MEAN INHIBITION (PAK2 (PAK65)): 5.449% | MEAN INHIBITION (RPS6KA5 (MSK1)): 8.353% | MEAN INHIBITION (MAPK11 (p38 beta)): 5.090% | MEAN INHIBITION (NIM1K): 0.982% | MEAN INHIBITION (DCAMKL1 (DCLK1)): 0.527% | MEAN INHIBITION (TYRO3 (RSE)): 2.535% | MEAN INHIBITION (CSNK2A2 (CK2alpha2)): 3.983% | MEAN INHIBITION (SGK (SGK1)): 1.583%
